Binding of CDR-mutated scFvs to a peptide of the spike HR2 region

Source: Li et al. 2023 (doi:10.1038/s41467-023-39022-2), MIT Lincoln Laboratory and A-Alpha Bio; data file from the FLAb repository.

The target is the same throughout: PDVDLGDISGINAS, from the HR2 region of SARS-CoV-2 spike.

Each scFv is VH, the linker GGGGSGGGGSGGGGS, VL, as in the parent Ab-14, and differs from it in the CDRs of the light chain only.
VH: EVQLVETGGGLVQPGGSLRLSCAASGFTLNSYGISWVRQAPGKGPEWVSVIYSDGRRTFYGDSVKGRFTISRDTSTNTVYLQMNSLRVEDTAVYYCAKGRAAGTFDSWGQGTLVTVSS
VL: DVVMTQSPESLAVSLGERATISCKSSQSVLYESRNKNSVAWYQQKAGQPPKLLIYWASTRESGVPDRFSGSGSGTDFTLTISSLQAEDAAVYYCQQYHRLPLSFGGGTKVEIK

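The starting antibody came from a phage panning campaign against this peptide. The variants were designed computationally from a first round of random CDR variants and then made and measured. Group labels follow the data file (Ctrl: baseline library sampled from a position-specific scoring matrix, with some repeated check sequences; Rand: our label for a block that the file lists under HC and that is probably the random mutants of the ten best first-round binders; En: ensemble of fine-tuned language models; GP: Gaussian process model; HC: hill climbing; Gen: genetic algorithm; Gibbs: Gibbs sampling; a sequence that several methods proposed may carry one label only). The scFvs were displayed on barcoded MATa yeast, the peptide on MATalpha yeast. Mating (16 h, 30 °C) was followed by selection of diploids and sequencing of their barcodes. A regression on co-assayed BCL2-family reference pairs converts the normalised counts of each replicate to an apparent Kd. Each pool was mated in six replicate cultures.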

The parent's light chain CDRs are KSSQSVLYESRNKNSVA, WASTRES, QQYHRLPLS; each variant's own CDRs replace them letter for letter. Kd is apparent (estimated from mating counts) and averaged on the log scale over replicates with a signal. Smaller is tighter. Entries are sorted by rising average.

CDR-L1	CDR-L2	CDR-L3	group	Kd (apparent)	replicates with signal
KLSQSVDYESRNKNNVA	NASTRES	QQYHRLPLS	GP_Gen	290 pM	6/6
HVSPSVAYESRNKNSVA	NASTRES	QQYHRLPLS	GP_HC	320 pM	6/6
KVPQSTLYESRNKNSVA	NASTRES	QQYHRLPLS	GP_Gen	400 pM	6/6
KSSQSVDFESRNKNSVA	DASTRES	QQYHRLPLS	GP_HC	460 pM	6/6
KLSESVLYESQNANNVA	DASTRMS	QQYHRLPLS	GP_Gibbs	470 pM	6/6
KQQCGELYMSRNKNSVA	DASQRES	QQYHRLPLS	GP_Gibbs	490 pM	6/6
KLSQSDLMESRNVNNVA	EASQRES	QQYHRLPLS	GP_Gibbs	520 pM	6/6
KFSQSVLFEWRNKNSVA	DASTRES	QQYHRLPLS	GP_HC	530 pM	6/6
KLSQSMLYESRNKNSVA	NASTREK	QQYHRLPLS	GP_Gen	530 pM	6/6
HQSPSVLYESRNKNNVA	NASTRES	QQYHRLPLS	GP_HC	640 pM	6/6
KLPQSVLYEERNKNSVA	NASTRES	QQYHRLPLS	GP_Gen	690 pM	6/6
KQSQSVLYESGNKNSVA	DASTRSS	QQYHRLPLS	GP_HC	740 pM	6/6
KMSQVYLYESRNKNSVA	GASTRES	QQYHRLPLS	GP_HC	830 pM	6/6
KLSQSFLYESRNKNSVA	NASTREV	QQYHRLPLS	GP_Gen	1.1 nM	6/6
HVSSMDMNDGGIKKSVA	DMKITER	QQYMRLPLS	En_Gibbs	1.2 nM	6/6
KLSQSSLYESRNKNSVA	NASTREQ	QQYHRLPLS	GP_Gen	1.3 nM	6/6
HLGGTMTWESKAKNSVA	QSNTRAE	QQYHRLPLS	En_HC	1.3 nM	6/6
KVSPSYLYEDRAFNSVA	NASTRES	QQYHRLPLS	GP_Gibbs	1.5 nM	6/6
KSLQSVDYESRNKNSVA	HASTRED	QLYHRLPLS	GP_HC	1.7 nM	6/6
KLSQSGLYESRNKNSVA	EASTRES	QDYHRLPLS	GP_Gen	1.8 nM	6/6
NLNVSEDQMPSSKNAIA	QTTCRNL	QQYVKLPLS	En_Gibbs	1.9 nM	6/6
KVSMLHWYEQRNKNSVA	EASTREQ	QQYHRLPLS	GP_Gibbs	2.1 nM	6/6
KLMQSVMYWMRNKNSVA	NASTRES	QQYHRLPLS	GP_Gibbs	2.1 nM	6/6
KLSTVTGTEKVKGNNVA	EMETRER	QQYNRLPLA	En_Gen	2.4 nM	6/6
KLSQSWWYESRNKNSVA	NASQRES	QQYHRLPLS	GP_Gen	2.7 nM	6/6

Second part, the sequence after the result:

Kd (apparent)	replicates with signal	CDR-L1	CDR-L2	CDR-L3	group
3.1 nM	6/6	KISQMVRVGSTKQNSIA	EEATRSD	QQYHRLPLS	En_Gen
3.3 nM	6/6	KISQMVRVGSTASNSIA	EEVTRAK	QQYHRLPLA	En_Gen
3.6 nM	6/6	KSSQKVLYESRVKNSVA	QASTRES	QQYHRLPLS	Ctrl
3.9 nM	6/6	KSSASYLYESRNENSVA	EASTREQ	QQYHRLPLS	GP_HC
4.0 nM	6/6	ILMQPQKELGAAKDNIA	DGSIRLG	QQYHRLPLV	En_Gibbs
4.2 nM	6/6	KIQLGLERYNGDYSSVA	NETQKGD	QQYFQLPLG	En_Gibbs
4.3 nM	6/6	KVYQGINGHYSAHNSIA	QEETRVD	QQYAHLPLS	En_Gen
4.5 nM	6/6	QLYEMNYELSGKTHSVA	DNSTRGE	QQYFRLPLE	En_Gen
4.6 nM	6/6	KISQMIRVGSTHSNSIA	EEATRAK	QQYHRLPLF	En_Gen
6.4 nM	6/6	KHEEGVEYESRNKNSVA	NASTRLS	QQYHRLPLS	GP_Gibbs
6.8 nM	6/6	HMSALSLMGSRNRNSVA	QMTTREN	QQYDRLPLI	En_Gen
8.8 nM	3/6	KSSQSVLYESMNKNSVA	WASTREH	QQYSRLPLS	Ctrl
12 nM	6/6	KVSEFMRGLMSRKDSIA	DNVTRQN	QQYDRLPLS	En_Gen
18 nM	6/6	MISQLFMYGSRNYNSIA	QASTREK	QQYDHLPLI	En_HC
19 nM	5/6	CSSPSGLYESRNKNSVA	NASTRES	QQYHRLPLS	Rand
30 nM	6/6	KLSGFHNVEQINKSNVA	EMVTRES	QQYDRLPLS	En_HC
32 nM	5/6	KSSQSCWYEWRNKNSIA	WASTRFS	QQYFRLPLS	Ctrl
32 nM	5/6	KSSQSVLYESRNKNSVA	WASTREL	QQYHRLPLS	Ctrl
110 nM	6/6	IIDQIMYHGNKSANSIA	QASERLN	QQYHHLPLI	En_Gen
170 nM	3/6	KSSWSVLYESRNKFSVA	KASTRES	QQYHRLPFS	Ctrl
230 nM	2/6	HVSEMIFAQMKMRNSVA	ENSTREA	QQYDRLPLS	En_HC
250 nM	2/6	KSSQSVLYESSNKNSVA	WASTRES	QQYHRLPCS	Ctrl
500 nM	1/6	KLGGEQQNSTYEKDNVA	DVNTTFE	QHYSRLPLT	En_Gibbs
530 nM	4/6	KFSDSVLLESRTKNRVA	NASTRES	QQYHRLGLS	Rand
38 µM	1/6	KSSQSVLYESRNANSVA	WASTRES	QQYHRLPLS	Ctrl

The closing 3 entries, repeated:

CDR-L1	CDR-L2	CDR-L3	group	Kd (apparent)	replicates with signal
KLGGEQQNSTYEKDNVA	DVNTTFE	QHYSRLPLT	En_Gibbs	500 nM	1/6
KFSDSVLLESRTKNRVA	NASTRES	QQYHRLGLS	Rand	530 nM	4/6
KSSQSVLYESRNANSVA	WASTRES	QQYHRLPLS	Ctrl	38 µM	1/6

The authors' rule: three or more of the six replicates give a measured affinity, fewer mean a poor binder. As a blank, each scFv also met three strains without target: over all light chain designs, 4% of these pairings were detected, typically at 430 nM and seldom below 38 nM. Values of this round are not directly comparable with the first-round values of the same sequences.